miR-21 reporter – miR-21 reporter, rising signal | 340,000 tested, under 10 active | AID 2288 | HeLa miR-21 FLuc reporter, luciferase, 48 h | Potency, µM (titrated, usually from 38.3 µM), for inactives: at the highest dose reporter change, positive = more light; active = well fitted rising curve with a large enough effect; inconclusive = small, poorly fitted or top-dose-only effect; inactive = no such curve, though single readings can be large or run the other way;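 further: % of control where 0% means no effect; miR-21 action dims this reporter so a rising signal means less miR-21 action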
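Luminescence from a firefly luciferase reporter carrying a miR-21 binding site downstream, stably expressed under a CMV promoter in HeLa cells that make miR-21 endogenously, reports miRNA modulation after 48 h compound exposure up to approximately 40uM final.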
G9a inh – blocks human histone lysine methyltransferase G9a | Potency, µM (titrated, usually from 102 µM), inactives show top-dose activity, negative = inhibition, actives largely listed as inhibitors | 350,000 compounds, 8.8% hits | Q96KQ7 | G9a H3K9 monomethylation, AlphaScreen, 2 h; further: potency means the concentration at half of the fitted maximal effect; on the % scale 0 is the no-effect control and ±100 the full control effect; nearly all actives have a fitted effect of over 75% in size
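AlphaScreen read-out: biotin-H3K9 peptide (500 nM) methylation by 20 nM enzyme with 20 uM SAM, 2 h at room temperature after 15 min compound preincubation; anti-monomethyl H3K9 antibody plus donor/acceptor beads, 10 min dark.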
Sfp PPTase inh – inhibitors of Bacillus subtilis Sfp phosphopantetheinyl transferase; Q9F4F7; Biochemical Sfp PPTase activity, qHTS; Potency, µM, inactives show max response, negative = inhibition, actives largely listed as inhibitors; hit rate 3.5% among 310,000; AID 1490; active means well fitted inhibition curve with a large enough effect; inconclusive means small, poorly fitted or top-dose-only effect, or another doubt; inactive means no such curve, though single readings can be large or run the other way;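 further: the enzyme is Sfp with the accession as filed and its product quenches rhodamine fluorescence; potency means the concentration at half of the fitted maximal effect; 0% = enzyme reaction without inhibitor and -100% = no enzyme wells; top concentration of the series not given in the record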
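After 15 min at room temperature with compound, 15 nM Sfp received 5 uM rhodamine-CoA plus 12.5 uM BHQ-2-ybbR (50 mM Hepes pH 7.6, 10 mM MgCl2). Rate came from the fluorescence difference over 30 min, ex 525/em 598 nm.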
LMNA splice mod – LMNA splicing modulation | HeLa LMNA splicing GFP/RFP minigene ratio, 48 h | Potency, µM (titrated, usually from 46.1 µM), inactives show top-dose ratio change, negative = inhibition, most hits filed as inhibitors | 200,000 compounds, 0.01% hits | AID 1487; active means well fitted inhibition curve with a large enough effect in the signal ratio, with a control signal flat, not every such curve was filed as active; inconclusive means small, poorly fitted or top-dose-only effect, or effect the other way, or a change in a side signal; the % refers to the signal ratio; further: potency means the concentration at half of the fitted maximal effect; on the % scale 0 is the no-effect control and ±100 the full control effect
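Read-out is the ratio of GFP to DsRed2 object intensity, acquired by 488 nm laser-scanning cytometry on HeLa lamin A-EGFP minigene reporter cells. Compound incubation 48 hrs at 37 °C in Opti-MEM with 2% FBS; DMSO 0.5% final.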
KDM4E inh – JMJD2E (human) inhibition; JMJD2E catalytic domain, FDH-coupled NADH fluorescence (FDH is formaldehyde dehydrogenase); B2RXH2; Potency, µM (series often up to 57.1 µM), for inactives: at the highest dose activity change, negative = inhibition, actives largely listed as inhibitors; 230,000 compounds, 1.6% hits; active means well fitted inhibition curve with a large enough effect, not every such curve was filed as active; inconclusive means small, poorly fitted or top-dose-only effect, or another doubt; inactive means no such curve, though single readings can be large or run the other way;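 further: potency means the concentration at half of the fitted maximal effect; 0% = wells with enzyme and -100% = buffer wells without enzyme; nearly all actives have a fitted effect of over 50% in size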
ALDH1A1 inh – inhibitors of human aldehyde dehydrogenase 1A1. Purified ALDH1A1, NADH fluorescence, propionaldehyde substrate. P00352. Potency, µM (series often up to 75.3 µM), inactives show at the highest dose activity, negative = inhibition, hits mostly inhibitors. 220,000 compounds, 7.3% hits; active means well fitted inhibition curve with a large enough effect, not every such curve was filed as active; inconclusive means small, poorly fitted or top-dose-only effect, or another doubt; inactive means no such curve, though single readings can be large or run the other way;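 further: potency means the concentration at half of the fitted maximal effect; plate controls were no enzyme wells and a reference inhibitor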
Numbers without * were called inactive; u = inconclusive; x = not tested or not shown; ! = not active in a repeat; [ ] = another dose, or the depositor's remark. This is a sample that favours compounds with a hit; in the whole collection about 13% have one here. Unless noted, the call rests on the fitted dose curve; in most records, active means well fitted curve in the direction sought with a large enough effect; inconclusive means small, poorly fitted or top-dose-only effect, or another doubt; inactive means no such curve, though single readings can be large; an effect the other way counts as inactive or inconclusive.

#	miR-21 reporter	G9a inh	Sfp PPTase inh	LMNA splice mod	KDM4E inh	ALDH1A1 inh	SMILES
1	-2%	-4%[59 µM]	x	5%[46 µM]	x	x	O=C(CSc1nc2c([nH]c3ccccc32)c(=O)n1-c1ccccc1)N1CCCC1
2	1%	7.9µM*	u	x	x	x	N#Cc1ccc(S(=O)(=O)NC2CC2)cc1
3	-4%	12%	3%	1%	u	-7%	O=S(=O)(NC1CCCC1)c1ccc(S(=O)(=O)NC2CCCC2)cc1
4	-57%	u	-7%	-5%	-6%	u	Cc1cccc(CSc2cn(CC(=O)N3CCOCC3)c3ccccc23)c1
5	-35%	32µM*!	-16%	-19%	-3%	7.5µM*	O=C(Cn1cc(SCc2cccc(Cl)c2)c2ccccc21)N1CCOCC1
6	0%	x	56µM*	x	x	x	O=C(Cn1cc(S(=O)(=O)Cc2cccc(F)c2)c2ccccc21)N1CCOCC1
7	-1%	-7%[59 µM]	11%	x	x	x	CCOc1ccc(N(CC(=O)Nc2cc(OC)cc(OC)c2)S(=O)(=O)c2c(C)[nH]c(=O)[nH]c2=O)cc1
8	13%	-1%[59 µM]	x	x	x	x	CCOc1ccccc1-c1noc(CCCC(=O)Nc2cccc(C(F)(F)F)c2)n1
9	x	x	-6%	x	x	-5%[13.5 µM]	C=CCOC(=O)/C=C/NC(=O)/C=C/C=C/CCCCCCCC(C)O (stereo not drawn)
10	2%	8.9µM*	20µM*	x	3%	x	C=CCOC(=O)/C=C/C(=O)NC(N)=O
11	x	31%[59 µM]	12%	u	x	11%	CC[C@H]1OC(=O)[C@H](C)[C@@H](O[C@H]2C[C@@](C)(OC)[C@@H](O)[C@H](C)O2)[C@H](C)[C@@H](O[C@@H]2O[C@H](C)C[C@H](N(C)C)[C@H]2O)[C@](C)(O)C[C@@H](C)CN(C)[C@H](C)[C@@H](O)[C@]1(C)O
12	1%	u	13%	x	x	x	CCOc1ccc(NC(=O)CN2CCN(CC(=O)Nc3ccc(OC)cc3OC)CC2)cc1
13	3%	45µM*	13%	-4%[46 µM]	x	x	CCN(CC)c1ccc(NC(=O)CN2CCN(CC(=O)Nc3ccccc3OC)CC2)cc1
14	-1%	45µM*	1%	x	x	x	CCOc1ccc(NC(=O)CN2CCN(CC(=O)Nc3ccccc3OC)CC2)cc1
15	-5%	7%	7%	5%	-8%	9%	O=C(CC1Oc2ccccc2NC1=O)NCc1ccccc1 (stereo not drawn)
16	u	35µM*	-10%	u	4%	u	CC(=O)CC1OC(=O)C(Br)=C1NCc1ccccc1 (stereo not drawn)
17	x	x	26%	x	u	u	COCCNc1nc(C)nc2c1nc(-c1ccccc1)n2CCN(C)C
18	-12%	50µM*	3%	u	-6%	4%	CCOc1ccc(S(=O)(=O)N(C)c2ccc(OCC(=O)Nc3nc(-c4cc(OC)ccc4OC)cs3)cc2)cc1
19	-4%	69%	14%	x	x	x	COc1ccc(NC(=O)NCc2ccccn2)c(OC)c1
20	9%	1.8µM*	56µM*	x	x	x	O=C(Nc1nnc2n1CCS2)c1ccco1
21	2%	29%[59 µM]	x	u	x	x	CCOc1ccc(CC(=O)Nc2nnc3n2CCS3)cc1
22	1%	53%[59 µM]	x	u	x	x	CC(C)(C)c1ccc(C(=O)Nc2nnc3n2CCS3)cc1
23	0%	10µM*	x	5%[46 µM]	x	x	O=C(Cc1ccccc1)Nc1nnc2n1CCS2
24	-3%	10µM*	x	-9%[46 µM]	x	x	O=C(Cc1ccc(F)cc1)Nc1nnc2n1CCS2
25	1%	u	x	8%[46 µM]	x	x	COc1ccc(CC(=O)Nc2nnc3n2CCS3)cc1
26	-1%	u	14%	x	-10%	u	CC1(C)CC(=NNC(=O)c2n[nH]c3c2CCC3)CC(C)(C)N1
27	0%	79µM*	-4%	x	x	x	Cc1ccc(C)c(C(=O)COC(=O)Cn2c(C)csc2=O)c1
28	x	x	-16%	x	-1%	-6%	N[C@H](CO)Cc1cnc[nH]1
29	x	7.5µM*	-112%	u	7%	2%	N=C(N)SCCc1cnc[nH]1
30	x	16%[12.7 µM]	x	x	x	x	COc1cc(-c2nnc(COC(=O)c3ccc(C)o3)o2)cc(OC)c1OC
31	-9%	11µM*	-3%	u	0%	6%	Cc1cc(C)cc(NC(=O)CSc2nc(N)c(NC(=O)c3cccs3)c(=O)[nH]2)c1
32	0%	79µM*	-4%	x	x	x	Nc1nc(SCC(=O)Nc2ccc(F)cc2)[nH]c(=O)c1NC(=O)c1ccc(F)c(F)c1
33	6%	u	u	x	10%	x	Cc1nnc(NC(=O)CSc2nc(N)c(NC(=O)c3cccs3)c(=O)[nH]2)s1
34	-8%	11%[59 µM]	1%	-10%	2%	-3%	O=C(c1ccccc1)c1ccc(OCC(O)CN2CCCCC2)cc1 (stereo not drawn)
35	-1%	3.5µM*	-14%	8%	u	-14%	CC(=O)c1ccc(OCCCN2CCCCC2)cc1
36	-1%	8.9µM*	u	u	u	u	O=C(c1ccccc1)c1ccc(OCCCN2CCCCC2)cc1
37	8%	16µM*	-22%	u	0%	0.1µM*	CC(C)COc1ccc(C(=O)CCN2CCCCC2)cc1
38	-9%	u	18%	x	x	x	COC(=O)c1ccc(C(=S)NCC2(N(C)C)CCCCC2)cc1
39	-2%	x	10%	-4%[46 µM]	-28%	-2%	OCCC1CN(Cc2cccc(-n3cccn3)c2)CCN1Cc1ccccc1 (stereo not drawn)
40	-31%	7.9µM*	-6%	-10%[46 µM]	-8%	6%	C/C(=N\N=c1/sc2ccccc2n1C)c1ccc(N2CCOCC2)cc1
41	-3%	6.3µM*	-2%	-9%	1%	-4%	COc1ccccc1/C=C\C=N\n1c(-c2ccc(Cl)cc2Cl)n[nH]c1=S
42	13%	4µM*	-16%	x	-10%	u	COc1ccccc1/C=C/C=N/n1c(-c2ccc(F)cc2)n[nH]c1=S
43	-4%	4.5µM*	-29%	1%	u	35µM*	COc1ccccc1/C=C\C=N\n1c(-c2ccc(Cl)cc2)n[nH]c1=S
44	4%	8%[59 µM]	x	u	x	x	CSc1ccc(CNC(=O)Cn2c(-c3cccs3)cc3cc(F)ccc32)cc1
45	-1%	25µM*!	13%	u	u	u	Cn1cc(C(F)(F)F)nc1-c1ccc(OCC(O)CNCCOc2ccc(O)c(C(N)=O)c2)cc1 (stereo not drawn)
46	-12%	u	4%	x	x	x	Cc1occc1C(=O)Nc1c(Cl)cccc1Cl
47	-22%	14µM*	-5%	30%	-5%	-12%	Cc1occc1C(=O)Nc1c(F)c(F)c(F)c(F)c1F
48	-1%	45µM*	-16%	7%	-3%	3%	Cc1occc1C(=O)Nc1nn[nH]n1
49	-5%	-28%	-23%	2%	4%	u	COc1ccccc1CNC(=O)c1ccoc1C
50	-1%	u	u	3%	-5%	10µM*	Cc1occc1C(=O)NCc1ccccc1F

Sorted by value in LMNA splice mod (falling): 5 of the compounds above
#	miR-21 reporter	G9a inh	Sfp PPTase inh	LMNA splice mod	KDM4E inh	ALDH1A1 inh	SMILES
47	-22%	14µM*	-5%	30%	-5%	-12%	Cc1occc1C(=O)Nc1c(F)c(F)c(F)c(F)c1F
48	-1%	45µM*	-16%	7%	-3%	3%	Cc1occc1C(=O)Nc1nn[nH]n1
50	-1%	u	u	3%	-5%	10µM*	Cc1occc1C(=O)NCc1ccccc1F
49	-5%	-28%	-23%	2%	4%	u	COc1ccccc1CNC(=O)c1ccoc1C
41	-3%	6.3µM*	-2%	-9%	1%	-4%	COc1ccccc1/C=C\C=N\n1c(-c2ccc(Cl)cc2Cl)n[nH]c1=S
